Source: patent US8093297B2 (Mutual Pharmaceutical Company, Inc., priority 2009, dated 2012)

Experiment: Pharmacokinetic study in healthy adults of single vs. multiple oral doses of colchicine tablets (Example 1)

Structure (SMILES): COc1cc2c(c(OC)c1OC)-c1ccc(OC)c(=O)cc1[C@@H](NC(C)=O)CC2 [Colchicine, (−)-N-[(7S,12aS)-1,2,3,10-tetramethoxy-9-oxo-5,6,7,9-tetrahydrobenzo[a]heptalen-7-yl]-acetamide]
- mean Cmin concentration (Day 25): 0.907 ng/mL
- Cmin, MEAN (multiple (b.i.d. x 10 days) oral doses colchicine 0.6 mg, after last dose Day 25, healthy adults N=13): 0.90651 ng/mL
